According to patent publication US8067586B2, “Fused heteroaryl derivatives” (Astellas Pharma Inc., priority 2000, dated 2011):

Test system: HCT116 cells
Assay: Colon cancer cell growth inhibition (Alamar Blue)
Conditions: incubation over 72 hours, result in words

## CC(=O)Nc1cccc(-c2nc(N3CCOCC3)c3oc4ncccc4c3n2)c1
  cancer cell growth inhibition activity: excellent
